Literature values in patent US6423829B1 (St. Jude Children's Research Hosital, priority 1997, dated 2002).

Protein sequences, listed by entry. Tags and fused reporters are not part of them. Lines headed by an entry give the natural chain unless they say otherwise; changes in a name come on top.
UniProt Q14542: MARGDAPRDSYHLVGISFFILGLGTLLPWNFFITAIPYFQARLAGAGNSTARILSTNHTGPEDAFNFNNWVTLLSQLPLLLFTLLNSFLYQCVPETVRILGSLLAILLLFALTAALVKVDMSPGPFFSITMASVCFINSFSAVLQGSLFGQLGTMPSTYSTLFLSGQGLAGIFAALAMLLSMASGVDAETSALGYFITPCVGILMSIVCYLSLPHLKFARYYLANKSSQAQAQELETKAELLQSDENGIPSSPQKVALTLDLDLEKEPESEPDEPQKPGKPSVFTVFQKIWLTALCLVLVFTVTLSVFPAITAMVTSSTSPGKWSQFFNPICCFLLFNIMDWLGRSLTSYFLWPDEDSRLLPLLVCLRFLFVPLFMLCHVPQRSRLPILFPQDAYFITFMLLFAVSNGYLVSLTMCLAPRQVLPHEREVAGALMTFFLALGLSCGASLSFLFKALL

Molecular target: ei transporter (Homo sapiens, UniProt Q14542)
Details: high concentrations; cited from earlier work

Structure (SMILES): O=[N+]([O-])c1ccc(CSc2ncnc3c2ncn3C2OC(CO)C(O)C2O)cc1 [NBMPR, 6-[(4-nitrobenzyl)thio-9-β-D-ribofuranosylpurine]]
- concentration at which the ei transporter is also inhibited: > 1 µM
